Assay results as given in patent US9586999B2, “Methods and compositions related to improving properties of pharmacological agents targeting nervous system” (University of Utah Research Foundation, priority 2006, dated 2017).

Assay: Metabolic stability in diluted rat serum at 37° C., HPLC
Assay type: in vitro ADME
Experimental: Analogs 5055 (SEQ ID NO: 3) or 1205-2 (SEQ ID NO: 50) or unmodified analog Gal(1-16) were incubated in diluted rat serum at 37° C. Remaining amounts of the peptides were determined by HPLC.

Substance: (Sar)WTLNSAGYLLGPDKDK(Lys-P)DK [NAX 1205-2]
- metabolic stability versus unmodified Gal(1-16): improve metabolic stability

Substance: Sar-Trp-Thr-Leu-Asn-Ser-Ala-Gly-Tyr-Leu-Leu-Gly-Pro-Lys-Lys-(Lys-palm)-Lys-NH2 [NAX 5055]
- metabolic stability versus unmodified Gal(1-16): improve metabolic stability
